The values that follow are results of earlier work, collected in paper PMC7716884 (Science translational medicine, 2020).

Assay in data set [1]: not given
The source holds these as a separate data set.

As for insulin, the “Duration of action in humans” value is 4 h. For the same substance, in data set [1], the “Duration of action in pigs” value was 2 h.
